## Antibody variant affinities, Ab-14 light chain, assay B

Values reported by Li et al. 2023, doi:10.1038/s41467-023-39022-2 (FLAb copy).

Antigen: PDVDLGDISGINAS, a 14-residue peptide of the SARS-CoV-2 spike HR2 region.

Each scFv is VH, a (GGGGS)3 linker, VL, as in the parent Ab-14, and differs from it in the CDRs of the light chain only.
VH: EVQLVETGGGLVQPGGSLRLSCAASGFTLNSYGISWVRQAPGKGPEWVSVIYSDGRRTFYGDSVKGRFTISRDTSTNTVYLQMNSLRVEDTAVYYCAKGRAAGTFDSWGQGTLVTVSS
VL: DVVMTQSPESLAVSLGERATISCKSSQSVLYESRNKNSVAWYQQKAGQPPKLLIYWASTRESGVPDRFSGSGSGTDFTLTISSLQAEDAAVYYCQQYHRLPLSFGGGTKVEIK

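The parent was found by panning a naive human phage display library on the peptide. The variants were designed computationally from a first round of random CDR variants and then made and measured. Their group label is 14L_GP_Gen (GP: Gaussian process model; Gen: genetic algorithm; a sequence that several methods proposed may carry one label only). The assay is AlphaSeq: two haploid yeast populations carry antibody and antigen on their surface. Mating (16 h, 30 °C) was followed by selection of diploids and sequencing of their barcodes. Each replicate has its own calibration line, from reference interactions of the BCL2 family. Each pool was mated in six replicate cultures.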

Variants are written as CDR1, CDR2 and CDR3 of the light chain (limits as in the source). Parent: KSSQSVLYESRNKNSVA, WASTRES, QQYHRLPLS. Affinities are written as log10 Kd with Kd in nM; a lower number is a better binder. Averages over replicates are reported, and they cover detected replicates only. An entry "n.d." has no value in the source: the pair was not observed among the diploids in that replicate. This suggests poor binding but is not conclusive. Values of this round are not directly comparable with the first-round values of the same sequences. Three control strains display no target. For all light chain designs, 4% of the pairings with them gave a signal, with a median of 2.64 and one signal in twenty below 1.59, so weak values seen in few replicates may be background. Also given: how often the same scFv was detected with the empty control strains, with their mean in brackets. Of ten entries with the parent sequence, four were seen in most replicates (averages 0.34 to 2.37), three in one and three in none, so single entries are noisy. The authors' rule: three or more of the six replicates give a measured affinity, fewer mean a poor binder.

| CDR-L1 | CDR-L2 | CDR-L3 | log10 Kd, replicates | mean log10 Kd (nM) | control signals |
|---|---|---|---|---|---|
| KSSQSVPYESRNKNSVA | AASTRES | QQYHRLPLS | n.d. 1.97 n.d. n.d. 2.24 3.56 | 2.59 | 0 of 18 |
| KLSQSVLYESRNSNSVA | NASTRES | QDYHRLPLS | 0.04 0.20 0.28 0.05 0.11 0.55 | 0.20 | 0 of 18 |
| KLSQSVLYESRNKNSVA | NASTRER | QQYHRLPLS | 0.13 -0.11 -0.36 -0.28 -0.46 -0.11 | -0.20 | 2 of 18 (2.59) |
| KFSQSVLYESRNKNSVA | DASQRES | QQYHRLPLS | 0.11 0.14 -0.03 -0.24 -0.22 0.15 | -0.01 | 1 of 18 (2.89) |
| KLSQGNLYESRNKNSVA | NASTRES | QQYHRLPLS | 0.09 -0.11 -0.19 -0.24 -0.24 -0.03 | -0.12 | 1 of 18 (3.21) |
| KLEQSVMYESRNKNSVA | NASTRES | QQYHRLPLS | -0.32 -0.36 -0.39 -0.78 -0.56 -0.26 | -0.45 | 0 of 18 |
| KLSQSMLYEQRNKNSVA | NASTRES | QQYHRLPLS | 0.06 -0.17 -0.58 -0.07 -0.07 0.10 | -0.12 | 0 of 18 |
| KVSESELYESRNKNSVA | EASTRES | QQYHRLPLS | -0.10 -0.21 -0.34 -0.45 -0.31 -0.17 | -0.26 | 0 of 18 |
| KLSQSQLYESRNKNSVA | SASQRES | QQYHRLPLS | -0.09 -0.15 -0.15 -0.10 0.25 0.06 | -0.03 | 1 of 18 (3.26) |
| KLQQSWLYESRNKNSVA | GASTRES | QQYHRLPLS | -0.07 0.09 0.19 -0.23 -0.19 0.27 | 0.01 | 0 of 18 |
| KLSQSVLYESRNWNSVA | NASTRMS | QQYHRLPLS | -0.48 -0.51 -0.66 -0.96 -0.93 -0.44 | -0.66 | 0 of 18 |
| KLMQSVLYESRNKNSVA | NASQRLS | QQYHRLPLS | 0.01 0.02 0.16 -0.14 0.18 0.23 | 0.08 | 4 of 18 (3.22) |
| KLPQSTLYESRNKNSVA | NASQRES | QQYHRLPLS | -0.01 -0.02 -0.09 0.01 -0.04 0.22 | 0.01 | 0 of 18 |
| KLSQSVPYESRNKNSVA | NASTRMS | QQYHRLPLS | 0.04 0.11 0.13 -0.30 0.02 0.18 | 0.03 | 0 of 18 |
| KLPQSTLYESRMKNSVA | NASTRES | QQYHRLPLS | 0.27 0.23 -0.13 0.01 0.33 0.42 | 0.19 | 1 of 18 (2.63) |
| KVSGSHLYESRNKNSVA | DASTRES | QQYHRLPLS | -0.20 -0.30 -0.48 -0.66 -0.52 -0.42 | -0.43 | 1 of 18 (2.69) |
| KVSPSYLYESRNKNSVA | NASTRES | QQYHRLPLS | -0.32 -0.28 -0.42 -0.61 -0.25 -0.24 | -0.35 | 0 of 18 |
| KLSQSFLYEERNKNSVA | NASTRLS | QQYHRLPLS | -0.23 -0.22 -0.43 -0.27 -0.38 -0.17 | -0.28 | 0 of 18 |
| KISQSVEYESRNKNSVA | NASTRES | QQYHRLPLS | -0.02 -0.24 -0.30 -0.34 -0.18 -0.02 | -0.18 | 4 of 18 (4.50) |
| KLSQSVLYESRNKNSVA | NASTRES | QSYHRLPLS | -0.02 -0.09 -0.28 -0.19 -0.21 0.05 | -0.12 | 2 of 18 (2.25) |
| KLEQSELYESRNKNSVA | NASERES | QQYHRLPLS | -0.15 -0.36 -0.31 -0.59 -0.53 -0.40 | -0.39 | 3 of 18 (3.51) |
| KLSQSVLYESRNKNSVA | NASTRME | QQYHRLPLS | 0.39 0.58 0.62 0.61 0.66 0.60 | 0.57 | 2 of 18 (3.42) |
| KLSQSVLYESRNSNSVA | NASTRMS | QQYHRLPLS | 0.15 -0.10 -0.14 -0.18 -0.36 0.04 | -0.10 | 1 of 18 (5.20) |
| KLSGSELYESRNKNSVA | EASTRES | QQYHRLPLS | 0.23 0.83 0.68 0.62 0.30 0.97 | 0.60 | 1 of 18 (1.99) |
| HLSQSQLYESRNKNSVA | NASTRCS | QQYHRLPLS | -0.53 -0.48 -0.36 -0.21 -0.27 -0.57 | -0.40 | 0 of 18 |
| KVSQSVLYEERNKNSVA | NASTRES | QQYHRLPLS | 0.22 -0.11 -0.30 -0.32 -0.37 -0.30 | -0.20 | 1 of 18 (2.10) |
| KLQQSHLYESRNKNSVA | HASTRLS | QQYHRLPLS | 0.81 0.85 0.79 0.90 0.92 0.98 | 0.87 | 0 of 18 |
| KISQSVLGESRNKNSVA | NASTRES | QQYHRLPLS | -0.28 -0.60 -0.39 -0.71 -0.52 -0.31 | -0.47 | 1 of 18 (2.52) |
| KVSQSVPYEERNKNSVA | EASTRES | QQYHRLPLS | 0.47 0.12 0.85 0.22 0.96 0.80 | 0.57 | 0 of 18 |
| KLSGSVLYESRNKNNVA | GASTRES | QQYHRLPLS | -0.54 -1.02 -1.14 -1.09 -1.21 -0.74 | -0.96 | 0 of 18 |
| KLSQSELYESRNKNSVA | EASTRCS | QQYHRLPLS | 0.16 0.25 0.18 -0.01 0.05 0.32 | 0.16 | 3 of 18 (3.22) |
| KLSQSELYESRNKNSVA | EASTRES | QQYHRLPLS | -0.18 -0.22 -0.41 -0.37 -0.33 -0.21 | -0.29 | 1 of 18 (2.67) |
| KLPQSEGYESRNKNSVA | NASQRES | QQYHRLPLS | 0.20 -0.02 0.07 -0.04 0.04 -0.07 | 0.03 | 0 of 18 |
| KFSQSVLYESRNKNNVA | DASTRES | QQYHRLPLS | -0.25 -0.41 -0.34 -0.43 -0.27 -0.30 | -0.34 | 0 of 18 |
| KLSQSVLYEWRNKNSVA | DASTRES | QQYHRLPLS | -0.27 -0.17 -0.36 -0.37 -0.28 -0.23 | -0.28 | 0 of 18 |
| KLSQSELYESRNKNSVA | NASCRES | QQYHRLPLS | -0.01 -0.21 -0.27 -0.40 -0.34 -0.02 | -0.21 | 1 of 18 (4.98) |
| FLEQSVLYESRNKNSVA | NASTRES | QQYHRLPLS | 0.01 -0.17 -0.21 -0.37 -0.23 -0.33 | -0.22 | 0 of 18 |
| KFSQSQLYESRNKNSVA | DASTRES | QQYHRLPLS | 0.02 -0.18 -0.05 -0.23 0.07 -0.01 | -0.06 | 0 of 18 |

For reference, 3 entries of the list once more:

| CDR-L1 | CDR-L2 | CDR-L3 | log10 Kd, replicates | mean log10 Kd (nM) | control signals |
|---|---|---|---|---|---|
| KVSQSVPYEERNKNSVA | EASTRES | QQYHRLPLS | 0.47 0.12 0.85 0.22 0.96 0.80 | 0.57 | 0 of 18 |
| KLSQSELYESRNKNSVA | EASTRES | QQYHRLPLS | -0.18 -0.22 -0.41 -0.37 -0.33 -0.21 | -0.29 | 1 of 18 (2.67) |
| KVSQSVLYEERNKNSVA | NASTRES | QQYHRLPLS | 0.22 -0.11 -0.30 -0.32 -0.37 -0.30 | -0.20 | 1 of 18 (2.10) |